Permeability data for macrocyclic peptides

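The data file gives no further conditions (lipid, pH, time, direction or concentration), and values from different papers need not be comparable. Other peptides of the study may be missing here. Peptides that the database sets to -10, its floor, are left out.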

PAMPA is the parallel artificial membrane permeability assay, which has no cells and reads passive diffusion.
Values are log10 P with P in cm/s, so -5 is more permeable than -7.

| compound | PAMPA (log10 cm/s) |
|---|---|
| CCCN1CC(=O)N[C@@H](CC(C)C)C(=O)N[C@H](CC(C)C)C(=O)N2CCC[C@H]2C(=O)N(C)[C@@H](CC(C)C)C(=O)N[C@@H](Cc2ccccc2)C(=O)N2CCC[C@H]2C1=O | -5.24 |
| CC(C)C[C@@H]1NC(=O)[C@H]2CCCN2C(=O)[C@H](CC(C)C)NC(=O)[C@@H](CC(C)C)NC(=O)[C@H](C)N(C)C(=O)[C@H](Cc2ccccc2)NC1=O | -6.01 |
| CC(C)C[C@@H]1NC(=O)[C@@H](C)NC(=O)[C@H](Cc2ccccc2)NC(=O)[C@H](CC(C)C)NC(=O)[C@@H]2CCCN2C(=O)C[C@H](Cc2ccccc2)NC1=O | -6.61 |
| CC(C)C[C@@H]1C(=O)N2CCC[C@H]2C(=O)N(C)[C@@H](CC(C)C)C(=O)N[C@@H](Cc2ccccc2)C(=O)N2CCC[C@@H]2C(=O)N(C)[C@H](C)C(=O)N[C@H](CC(C)C)C(=O)N1C | -4.93 |
| CC(C)C[C@@H]1NC(=O)[C@@H](C)N(C)C(=O)[C@@H]2CCCN2C(=O)[C@H](Cc2ccccc2)NC(=O)[C@@H](CC(C)C)NC(=O)[C@H]2CCCN2C(=O)[C@H](CC(C)C)N(C)C1=O | -5.86 |
| CC(C)C[C@@H]1NC(=O)[C@H]2CCCN2C(=O)[C@H](CC(C)C)N(C)C(=O)[C@H](CC(C)C)NC(=O)[C@@H](C)N(C)C(=O)[C@@H]2CCCN2C(=O)[C@H](Cc2ccccc2)NC1=O | -5.64 |
| CCCN1CC(=O)N(Cc2ccccc2)CC(=O)N(C)[C@@H](CC(C)C)C(=O)N2CCC[C@@H]2C(=O)N(C)[C@@H](CC(C)C)C(=O)N[C@@H](Cc2ccccc2)C(=O)N2CCC[C@H]2C1=O | -5.25 |
| CCCN1CC(=O)N[C@H](CC(C)C)C(=O)N(C)[C@@H](CC(C)C)C(=O)N2CCC[C@H]2C(=O)N(C)[C@H](CC(C)C)C(=O)N[C@@H](Cc2ccccc2)C(=O)N2CCC[C@H]2C1=O | -5.53 |
| CC(C)C[C@@H]1NC(=O)C[C@H](Cc2ccccc2)NC(=O)[C@@H]2CCCN2C(=O)[C@H](Cc2ccccc2)NC(=O)[C@@H](CC(C)C)N(C)C(=O)[C@@H]2CCCN2C(=O)[C@H](CC(C)C)N(C)C1=O | -5.37 |
| CC(C)C[C@@H]1C(=O)N[C@@H](Cc2ccccc2)CC(=O)N2CCC[C@H]2C(=O)N(C)[C@@H](CC(C)C)C(=O)N[C@@H](Cc2ccccc2)C(=O)N2CCC[C@@H]2C(=O)N[C@@H](Cc2ccccc2)CC(=O)N1C | -5.45 |
| CC(C)C[C@@H]1C(=O)N(Cc2ccccc2)CC(=O)N2CCC[C@@H]2C(=O)N(C)[C@@H](CC(C)C)C(=O)N[C@@H](Cc2ccccc2)C(=O)N2CCC[C@H]2C(=O)N[C@@H](Cc2ccccc2)CC(=O)N1C | -5.58 |
| CC(C)C[C@@H]1C(=O)N2CCC[C@H]2C(=O)N(C)[C@H](CC(C)C)C(=O)N[C@@H](Cc2ccccc2)C(=O)N[C@H](C)C(=O)N(C)[C@H](CC(C)C)C(=O)N1C | -5.20 |
| CC(C)C[C@@H]1NC(=O)[C@@H]2CCCN2C(=O)[C@H](CC(C)C)NC(=O)[C@@H](CC(C)C)NC(=O)C[C@H](Cc2ccccc2)NC(=O)[C@H](Cc2ccccc2)NC1=O | -5.78 |

2 of these entries, quoted again:

| compound | PAMPA (log10 cm/s) |
|---|---|
| CCCN1CC(=O)N(Cc2ccccc2)CC(=O)N(C)[C@@H](CC(C)C)C(=O)N2CCC[C@@H]2C(=O)N(C)[C@@H](CC(C)C)C(=O)N[C@@H](Cc2ccccc2)C(=O)N2CCC[C@H]2C1=O | -5.25 |
| CC(C)C[C@@H]1NC(=O)[C@H]2CCCN2C(=O)[C@H](CC(C)C)NC(=O)[C@@H](CC(C)C)NC(=O)[C@H](C)N(C)C(=O)[C@H](Cc2ccccc2)NC1=O | -6.01 |

Collected by the curators of CycPeptMPDB (Li et al. 2023) from Townsend et al. 2020, doi:10.26434/chemrxiv.13335941.v1.